The list is not random: actives were taken first. Their share in the collection is about 2.3%.
Nrf2 ARE act = activators of Nrf2 (ARE) signaling | AREc32 ARE-luciferase reporter (MCF7-derived line), luminescence, 24 h | Potency, µM (highest dose often 46.1 µM), actives largely listed as activators | 410,000 tested, 0.31% active; also: nearly all actives have a fitted effect of over 65% in size
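ARE-driven firefly luciferase activity in AREc32 cells measured after a 24 hr compound exposure at 37 deg C, using Steady-Glo reagent and a 30 min room-temperature hold.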
A549 tox = A549 cytotoxicity, counter-screen for Nrf2 inhibitors | Potency, µM (doses to about 46 µM), actives largely listed as inhibitors | 390,000 tested, 0.16% active | A549 ARE-Fluc cells, CellTiter-Fluor viability, 18-24 h | AID 504648
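A549 ARE-Fluc cells in 5% FBS OPTI-MEM, 5000 cells/well, rested 2 h then exposed to compounds in concentration-response for 18-24 h at 37 °C. Viability by CellTiter-Fluor fluorescence (Ex 405/Em 525) after 30 min; luciferase luminescence (BugLite, 15 min, RT) read afterwards.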
Mito fusion yeast = mitochondrial division inhibition or fusion activation. S. cerevisiae fusion-defective mutant growth rescue, CellTiterGlo 48 h. Potency, µM (top dose mostly 46.1 µM), usual class: activators. 320,000 tested, 0.23% active; also: nearly all actives have a fitted effect of over 45% in size
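Luminescent cell viability in 1536-well qHTS format served as the measure of rescued growth in ts fusion-mutant S. cerevisiae cultured on non-fermentable YPEG for 48 hours at 37C.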
miR-21 reporter = raises the signal of a miR-21 reporter | HeLa miR-21 FLuc reporter, luciferase, 48 h | Potency, µM (highest dose often 38.3 µM) | 340,000 tested, under 10 active | AID 2288; active = well fitted rising curve with a large enough effect; inconclusive = small, poorly fitted or top-dose-only effect; inactive = no such curve, though single readings can be large or run the other way;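 also: miR-21 action dims this reporter so a rising signal means less miR-21 action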
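Using DMEM plus 10% FBS, HeLa miR-21-FLuc cells are incubated with test compounds (final up to about 40uM) for 48 hours; firefly luciferase signal is then imaged following reagent-mediated lysis.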
Nrf2 inh = inhibitors of Nrf2 signaling | Potency, µM (highest dose often 46 µM), hits mostly inhibitors | AID 504444 | 360,000 tested, 2.1% active | A549 ARE-Fluc reporter, luciferase luminescence, 18-24 h; also: nearly all actives have a fitted effect of over 60% in size
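Nrf2 activity is the BugLite luminescence, read 15 min after reagent at room temperature, following CellTiter-Fluor cytotoxicity readout (30 min, 37C). Compound titrations were applied for 18-24 h to 5000 A549 ARE_Fluc cells/well in 5% FBS OPTI-MEM.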
Hits are given with their value; 0 = inactive; ? = inconclusive; - = no result given; ! = not confirmed by another sample; [ ] = another dose, or the depositor's remark. Unless noted, calls follow the shape of the dose curve; as a rule, active = well fitted curve in the direction sought with a large enough effect; inconclusive = small, poorly fitted or top-dose-only effect, or another doubt; inactive = no such curve, though single readings can be large; an effect the other way counts as inactive or inconclusive.

SMILES | Nrf2 ARE act | A549 tox | Mito fusion yeast | miR-21 reporter | Nrf2 inh
COc1ccc(-c2nc(SCC(=O)NC3CCCC3)c(-c3ccc(F)cc3)[nH]2)cc1 | 0 | 0 | - | 0 | 16µM
COCCCNC(=O)CSc1nc(-c2ccccc2)[nH]c1-c1ccc(C)cc1 | 0 | 0 | - | 0 | ?
O=C(CSc1nc(-c2ccc(F)cc2)[nH]c1-c1ccc(F)cc1)Nc1ccc2c(c1)OCCO2 | 0 | ? | - | ? | ?
COc1ccc(-c2[nH]c(-c3ccc(F)cc3)nc2SCC(=O)NC2CCCC2)cc1 | 0 | 0 | 0 | 0 | ?
COCCCNC(=O)CSc1nc(-c2cccc(F)c2)[nH]c1-c1ccccc1 | 0 | 0 | - | 0 | 15µM
O=C(CSc1nc(-c2ccc(F)cc2)[nH]c1-c1ccc(F)cc1)Nc1ccc2c(c1)OCO2 | 0 | ? | - | ? | 16µM
CC(=O)Nc1nonc1-c1nnc(SCc2ccccc2F)n1C | 0 | 0 | - | 0 | 0
O=C(Cn1cnc2onc(-c3ccc(F)cc3)c2c1=O)Nc1cccc(C(F)(F)F)c1 | 0 | 0 | - | ? | 23µM
CCn1cc([N+](=O)[O-])c(C(=O)Nc2nc(-c3ccc(C)cc3)c(C)s2)n1 | ? | 0 | 0 | 0 | 0
CCn1cc([N+](=O)[O-])c(C(=O)Nc2nc(-c3ccc(C)c(C)c3)c(C)s2)n1 | ? | 0[1.84 µM] | 0 | 0 | 16µM
N#Cc1ccccc1S(=O)(=O)N1CCN(c2nc(-c3cccs3)nc3ccccc23)CC1 | - | 0 | - | - | ?
CCC1=Nc2cc(C(=O)N3CCC(C)CC3)ccc2Sc2ccc(C)cc21 | 0 | ? | - | 0 | 18µM
O=S(=O)(N1CCN(c2nc(-c3cccs3)nc3ccccc23)CC1)C(F)(F)F | - | 0 | - | - | 0
Cc1ccc(-n2nnnc2Sc2ccc(S(=O)(=O)NCCN(C)C)cc2[N+](=O)[O-])cc1 | ? | 6.5µM | 0 | ? | 10µM
O=[N+]([O-])c1cc(S(=O)(=O)NCCN2CCOCC2)ccc1Sc1nnnn1-c1ccccc1 | ? | 0 | 0 | ? | ?
CCOc1ccc(S(=O)(=O)N2CCN(Cc3nc4ccc(C)cc4o3)CC2)cc1 | 0 | 0 | - | 0 | -
Cc1cccc(/C=C/c2onc(C)c2[N+](=O)[O-])n1 | 0 | 18µM | - | - | 15µM
CCCCOC(=O)/C=C\C(=O)NC(N)=O | 16µM | 0 | 0 | 0 | 0
CC(C)(C)NC(=O)C(c1ccc(-c2ccccc2)cc1)N(C[C@H]1CC[C@@H]([C@@H]2CC[C@H](CO)O2)O1)C(=O)c1cccc(Cl)c1 (stereo partly specified) | 0 | ? | - | - | 23µM
COc1ccc(OC)c(C(=O)N(C[C@H]2CC[C@@H]([C@@H]3CC[C@H](CO)O3)O2)C(C(=O)NC(C)(C)C)c2ccc(-c3ccccc3)cc2)c1 (stereo partly specified) | 0 | ? | - | - | 26µM
COc1cc(S(=O)(=O)N2CCN(Cc3ccc4c(c3)OCO4)CC2)c(C)cc1C | 0 | 0 | 14µM | 0 | 0
COC(=O)c1cc(F)c(S(=O)(=O)N2CCN(S(=O)(=O)c3ccc4c(c3)OCCO4)CC2)cc1F | - | 0 | - | - | 0
Cc1c(C(=O)OCc2nc3scc(-c4ccccc4)c3c(=O)[nH]2)cccc1[N+](=O)[O-] | 0 | 0 | 0 | 0 | 21µM
O=C(CSc1nc2c([nH]c3ccccc32)c(=O)n1-c1ccc(F)cc1)NCC1CCCO1 (stereo unspecified) | 0 | 0 | - | 0 | -
Cn1nnnc1Sc1ncnc2scc(-c3ccccc3C#N)c12 | - | 0 | - | - | ?
SMILES | Nrf2 ARE act | A549 tox | Mito fusion yeast | miR-21 reporter | Nrf2 inh
CCCCN(CCCC)C(=O)c1cc2c(=O)n3ccccc3nc2s1 | 0 | 0 | - | 0 | 0
Cc1ccccc1N(CC(=O)N/N=C/c1ccc(Cl)cc1)C(=O)c1ccccc1 | 0 | ? | 0 | 0 | 21µM
Cc1nc(N2CCCC2)c2c(C(=O)Nc3ccc(Br)cc3F)c(C)oc2n1 | 0 | 0 | - | 0 | 0
O=C(O)CC1(CC(=O)Nc2cc(C(F)(F)F)cc(C(F)(F)F)c2)CCCCC1 | 0 | 0 | 0 | 0 | 23µM
Cc1cc2oc(C(=O)Nc3cccc(-c4nc5ccccc5o4)c3)c(C)c2cc1Cl | 0 | 0 | - | 0 | 0
COc1ccc(-c2cc(C(=O)Nc3cc(C)n(Cc4ccc(Cl)cc4)n3)no2)cc1OC | 0 | 0 | 0 | 0 | 4.1µM
Cc1cc(NC(=O)c2noc3c2CCCC3)nn1Cc1ccc(Cl)cc1 | 0 | 0 | 0 | 0 | 23µM
COc1ccc2c(c1)CCc1c(C(=O)Nc3cc(C)n(Cc4ccc(Cl)cc4)n3)noc1-2 | 0 | 0 | 0 | 0 | 0
Clc1ccccc1C(c1ccccc1)(c1ccccc1)n1ccnc1 | 0 | 0 | 0.52µM! | ? | ?
CCOc1ccc(S(=O)(=O)Nc2ccc(F)cc2)c(C)c1C | 0 | 0 | 0 | 0 | 18µM
CCOc1ccc(NS(=O)(=O)c2cc(OC)ccc2OC)cc1 | 0 | 0 | 0 | 0 | 0
Cc1cccc(N2CCN(C(=O)CCCn3ncn4c(cc5occc54)c3=O)CC2)c1C | 0 | 0 | - | 0 | 0
Cc1ccc(NC(=O)c2c(NC(=O)c3ccc(F)cc3)sc3c2CCCC3)cc1C | 0 | 0 | - | 0 | ?
CC(C)(O)c1cc2ccc(C#Cc3ccsc3)cc2c(=O)o1 | 5µM | 0 | ? | - | 0
COc1ccc(NC(=O)C(OC(=O)CNC(=O)c2ccccc2)c2ccccc2)cc1Cl (stereo unspecified) | - | 0 | - | - | 0
O=C(NCCSCc1ccccc1)c1ccc(C2SCC(=O)N2Cc2ccccc2)cc1 (stereo unspecified) | 0 | 0 | 0 | 0 | 10µM
Cc1ccccc1N=C(NOCc1ccc(Cl)cc1Cl)c1nonc1N | 0 | 0 | 0 | 0 | ?
Cc1ccc(N=C(NOCc2ccc(Cl)cc2Cl)c2nonc2N)c(C)c1 | 0 | 0 | 0 | 0 | 23µM
Cc1ccccc1N=C(NOCc1ccccc1)c1nonc1N | 0 | 0 | 22µM | 0 | 0
O=C(Nc1cc(C(F)(F)F)ccc1Cl)C(O)Cc1ccccc1 (stereo unspecified) | - | 0 | - | - | 0
C/C(=N\Nc1nc(C)cc(-c2ccccc2)n1)c1cccc(N)c1 | 0 | 0 | 0 | 0 | 21µM
CCOc1ccccc1NC(=O)CCCc1nc(-c2ccccc2Cl)no1 | 0 | 0 | - | 0 | 0
Cc1cc(=O)oc2cc(OCc3ccc(C(=O)N4CCN(c5ccccc5)CC4)cc3)ccc12 | 0 | 0 | 0 | 0 | 18µM
CC1=C(c2ccc(C)c(C)c2)S(=O)(=O)N(Cc2ccc(C(=O)Nc3cc(F)ccc3F)cc2)C1=O | 0 | 0 | - | 0 | ?
CN(C)c1ccc(C2C=C(c3ccccc3)Nc3nnnn32)cc1 (stereo unspecified) | 0 | 0 | - | 0 | 0
CCn1nc(C(=O)NNC(=O)c2ccccc2)c2ccccc2c1=O | 16µM | 0 | 0 | - | ?
O=C(CCl)Nc1cc2[nH]c(=O)[nH]c2cc1Br | ? | 23µM | 0 | ? | 21µM
Cc1cc2c(C)cc(=O)[nH]c2cc1NC(=O)CCl | ? | 0 | 0 | ? | ?
CC[n+]1c(/C=C2\C=C(C)CC(C)(C)C2)sc2ccccc21 | ? | 0[1.84 µM] | 0 | 0 | 16µM

Assay outcomes (PubChem BioAssay)
